One data set deals with HEK 293T cells. Briefly: CellTiter Blue assay. In kind it is cell-based, human. The settings on record: about 16 hours treatment, viability normalised to vehicle. As to the method: HEK 293T cells (ATCC CRL-3216) were grown in DMEM medium, supplemented with 10% FBS, 1 mM sodium pyruvate, non-essential amino acids. 100 μL of 10 000 cells were grown in flat-bottom 96-well plates (Fischer Scientific) overnight until cells are attached to the plate. Peptides were dissolved with Mini-plasco Nacl 0.9% (B. Braun) to 2 mg/mL and diluted to indicated concentrations using cell culture medium. Cells were treated by adding 100 μL peptides to each well for about 16 hours. Cells lysed with 1% Triton X-100 was included as a positive control. The toxicity of the peptide treatments was evaluated using the CellTiter-Blue Cell Viability Assay according to the instructions of the manufacturer (Promega, USA). The metabolic activity of viable cells is measured by recording fluorescence intensity at 590 nm after excitation at 560 nm. Cell viability is determined by normalising the fluorescence intensity of peptide- or triton-treated cells to the vehicle-treated sample.

Data set [1] concerns A. baumannii clinical isolates. In kind it is cell-based, Acinetobacter baumannii. To be noted: S12 Table; each table row is one A. baumannii clinical isolate (12 isolates). From the text:
To address the emerging antibiotic resistance issue, it is not only required to develop active antibiotics against wildtype bacteria, but also against the clinically isolated multidrug-resistant strains. Therefore, we determined whether P2 variants with a 4-fold lower MICs (P2_A5F, V7Y (P2), P2_H12_GV, P2_H12_PEG) (S12 Table) will also show improved antimicrobial activity against these multidrug-resistant strains. Since a high net positive charge could carry inherent developability challenges, we further explored the therapeutic potential of P2 variants with reduced net charge (P2_4R_GV and P2_4R_L) (S12 Table) by determining their antimicrobial activity against these clinically isolated multidrug-resistant strains. […]
The peptide MIC was determined via the broth microdilution assay according to the EUCAST guideline, using 96-well polystyrene flat-bottom microtiter plates (BD Biosciences). […] The MIC was determined as the lowest peptide concentration without visible bacterial growth.

Consider one compound from paper PMC10065276, “Enhanced therapeutic window for antimicrobial Pept-ins by investigating their structure-activity relationship” (PLOS ONE, 2023).

≈ marks a conversion by molar mass, not a printed value.

On to `CC(C)C[C@H](NC(=O)CNC(=O)[C@H](CCCNC(=N)N)NC(=O)[C@@H]1CSSC[C@H](NC(=O)[C@@H](NC(=O)[C@H](CC(C)C)NC(=O)[C@H](C)NC(=O)[C@H](CC(C)C)NC(=O)CNC(=O)[C@H](CC(C)C)NC(=O)CNC(=O)[C@@H](N)CCCNC(=N)N)C(C)C)C(=O)N[C@@H](CCCNC(=N)N)C(=O)N[C@@H](CCCNC(=N)N)C(=O)NCCOCCOCC(=O)N1)C(=O)NCC(=O)N[C@@H](CC(C)C)C(=O)N[C@@H](C)C(=O)N[C@@H](CC(C)C)C(=O)N[C@H](C(=O)N[C@@H](CCCNC(=N)N)C(=O)N[C@@H](CCCNC(=N)N)C(=O)O)C(C)C` [Peptide P2_H12_PEG], for which, in the data set with HEK 293T cells, the “toxicity on HEK 293T cells” value is recorded as “induced toxicity effects”. In addition, the MIC (as a rule, the smallest concentration in the dilution series that meets the test's criterion for growth inhibition) in data set [1] came to 8 µg/mL (≈ 3.13 µM).
